# Measurements: the CheMixHub ionic liquid set
# ± gives the uncertainty stated by the source.
# Experiment: xn = mol fraction of the nth substance listed
compound,measurement,setting,value
CCC[N+](CCC)(CCC)CCC.[Br-] + OCC(O)CO,electrical conductivity,"292.9 K, 101 kPa, x2 = 0.6667",0.0179 ± 0.0036 S/m
same,electrical conductivity,"293 K, 101 kPa, x2 = 0.75",0.0187 ± 0.0037 S/m
same,electrical conductivity,"293.2 K, 101 kPa, x2 = 0.8",0.0154 ± 0.0031 S/m
same,viscosity,"294 K, 101 kPa, x2 = 0.6667",86 ± 26 mPa·s
same,viscosity,"294.4 K, 101 kPa, x2 = 0.75",56 ± 17 mPa·s
same,viscosity,"296.8 K, 101 kPa, x2 = 0.8",41 ± 12 mPa·s
same,electrical conductivity,"302.9 K, 101 kPa, x2 = 0.6667",0.0399 ± 0.008 S/m
same,electrical conductivity,"303 K, 101 kPa, x2 = 0.75",0.0358 ± 0.0072 S/m
same,electrical conductivity,"303.1 K, 101 kPa, x2 = 0.8",0.0334 ± 0.0067 S/m
same,viscosity,"303.6 K, 101 kPa, x2 = 0.75",41 ± 12 mPa·s
same,viscosity,"303.6 K, 101 kPa, x2 = 0.8",32.7 ± 9.8 mPa·s
same,viscosity,"303.8 K, 101 kPa, x2 = 0.6667",59 ± 18 mPa·s
same,electrical conductivity,"313 K, 101 kPa, x2 = 0.6667",0.068 ± 0.014 S/m
same,electrical conductivity,"313 K, 101 kPa, x2 = 0.75",0.059 ± 0.012 S/m
same,electrical conductivity,"313.1 K, 101 kPa, x2 = 0.8",0.055 ± 0.011 S/m
same,viscosity,"313.7 K, 101 kPa, x2 = 0.6667",35 ± 11 mPa·s
same,viscosity,"313.7 K, 101 kPa, x2 = 0.8",21.2 ± 6.4 mPa·s
same,viscosity,"313.9 K, 101 kPa, x2 = 0.75",25.3 ± 7.6 mPa·s
same,viscosity,"318.15 K, 100 kPa, x1 = 0.333",221 ± 15 mPa·s
same,electrical conductivity,"322.9 K, 101 kPa, x2 = 0.6667",0.11 ± 0.022 S/m
same,electrical conductivity,"323.2 K, 101 kPa, x2 = 0.75",0.092 ± 0.018 S/m
same,electrical conductivity,"323.2 K, 101 kPa, x2 = 0.8",0.09 ± 0.018 S/m
same,viscosity,"323.7 K, 101 kPa, x2 = 0.75",17.6 ± 5.3 mPa·s
same,viscosity,"323.7 K, 101 kPa, x2 = 0.8",14.3 ± 4.3 mPa·s
same,viscosity,"324.1 K, 101 kPa, x2 = 0.6667",23.3 ± 7 mPa·s
same,electrical conductivity,"333 K, 101 kPa, x2 = 0.6667",0.159 ± 0.032 S/m
same,electrical conductivity,"333 K, 101 kPa, x2 = 0.75",0.14 ± 0.028 S/m
same,electrical conductivity,"333.1 K, 101 kPa, x2 = 0.8",0.138 ± 0.028 S/m
same,viscosity,"333.7 K, 101 kPa, x2 = 0.75",11.8 ± 3.5 mPa·s
same,viscosity,"333.9 K, 101 kPa, x2 = 0.6667",15.9 ± 4.8 mPa·s
same,viscosity,"333.9 K, 101 kPa, x2 = 0.8",10.6 ± 3.2 mPa·s
same,electrical conductivity,"342.9 K, 101 kPa, x2 = 0.75",0.197 ± 0.039 S/m
same,electrical conductivity,"343.1 K, 101 kPa, x2 = 0.6667",0.211 ± 0.042 S/m
same,electrical conductivity,"343.2 K, 101 kPa, x2 = 0.8",0.192 ± 0.038 S/m
same,viscosity,"343.8 K, 101 kPa, x2 = 0.75",8.6 ± 2.6 mPa·s
same,viscosity,"344 K, 101 kPa, x2 = 0.6667",11 ± 3.3 mPa·s
same,viscosity,"344 K, 101 kPa, x2 = 0.8",7.3 ± 2.2 mPa·s
same,electrical conductivity,"353 K, 101 kPa, x2 = 0.6667",0.268 ± 0.053 S/m
same,electrical conductivity,"353 K, 101 kPa, x2 = 0.75",0.278 ± 0.056 S/m
same,electrical conductivity,"353 K, 101 kPa, x2 = 0.8",0.267 ± 0.053 S/m
same,viscosity,"353.8 K, 101 kPa, x2 = 0.8",5.7 ± 1.7 mPa·s
same,viscosity,"354 K, 101 kPa, x2 = 0.6667",8.6 ± 2.6 mPa·s
same,viscosity,"354.2 K, 101 kPa, x2 = 0.75",6.9 ± 2.1 mPa·s
CCC[N+](CCC)(CCC)CCC.[Br-] + OCCO,electrical conductivity,"292.9 K, 101 kPa, x2 = 0.75",0.221 ± 0.044 S/m
same,electrical conductivity,"292.9 K, 101 kPa, x2 = 0.8333",0.296 ± 0.059 S/m
same,electrical conductivity,"293.1 K, 101 kPa, x2 = 0.8",0.274 ± 0.055 S/m
same,viscosity,"293.8 K, 101 kPa, x2 = 0.75",1505 ± 460 mPa·s
same,viscosity,"294 K, 101 kPa, x2 = 0.8333",980 ± 300 mPa·s
same,viscosity,"294.8 K, 101 kPa, x2 = 0.8",880 ± 270 mPa·s
same,viscosity,"302.8 K, 101 kPa, x2 = 0.8333",520 ± 160 mPa·s
same,electrical conductivity,"303 K, 101 kPa, x2 = 0.75",0.327 ± 0.066 S/m
same,electrical conductivity,"303 K, 101 kPa, x2 = 0.8",0.386 ± 0.077 S/m
same,electrical conductivity,"303 K, 101 kPa, x2 = 0.8333",0.402 ± 0.08 S/m
same,viscosity,"303.4 K, 101 kPa, x2 = 0.8",560 ± 170 mPa·s
same,viscosity,"304 K, 101 kPa, x2 = 0.75",690 ± 210 mPa·s
same,electrical conductivity,"312.5 K, 101 kPa, x2 = 0.8",0.53 ± 0.11 S/m
same,electrical conductivity,"312.9 K, 101 kPa, x2 = 0.75",0.439 ± 0.088 S/m
same,electrical conductivity,"313.1 K, 101 kPa, x2 = 0.8333",0.54 ± 0.11 S/m
same,viscosity,"313.7 K, 101 kPa, x2 = 0.75",320 ± 96 mPa·s
same,viscosity,"313.7 K, 101 kPa, x2 = 0.8",246 ± 74 mPa·s
same,viscosity,"313.7 K, 101 kPa, x2 = 0.8333",217 ± 65 mPa·s
same,viscosity,"318 K, 100 kPa, x2 = 0.75",26 ± 0.6 mPa·s
same,electrical conductivity,"322.8 K, 101 kPa, x2 = 0.8",0.65 ± 0.13 S/m
same,viscosity,"322.9 K, 101 kPa, x2 = 0.8333",100 ± 30 mPa·s
same,electrical conductivity,"323 K, 101 kPa, x2 = 0.75",0.57 ± 0.11 S/m
same,electrical conductivity,"323.2 K, 101 kPa, x2 = 0.8333",0.77 ± 0.15 S/m
same,viscosity,"323.9 K, 101 kPa, x2 = 0.75",144 ± 43 mPa·s
same,viscosity,"323.9 K, 101 kPa, x2 = 0.8",107 ± 32 mPa·s
same,electrical conductivity,"332.7 K, 101 kPa, x2 = 0.75",0.75 ± 0.15 S/m
same,electrical conductivity,"333.2 K, 101 kPa, x2 = 0.8",0.85 ± 0.17 S/m
same,electrical conductivity,"333.2 K, 101 kPa, x2 = 0.8333",0.82 ± 0.16 S/m
same,viscosity,"333.5 K, 101 kPa, x2 = 0.8333",49 ± 15 mPa·s
same,viscosity,"333.7 K, 101 kPa, x2 = 0.8",56 ± 17 mPa·s
same,viscosity,"334.1 K, 101 kPa, x2 = 0.75",71 ± 21 mPa·s
same,electrical conductivity,"342.7 K, 101 kPa, x2 = 0.75",0.9 ± 0.18 S/m
same,electrical conductivity,"343.1 K, 101 kPa, x2 = 0.8333",1.03 ± 0.21 S/m
same,viscosity,"343.2 K, 101 kPa, x2 = 0.8333",26.8 ± 8.1 mPa·s
same,viscosity,"343.6 K, 101 kPa, x2 = 0.75",42 ± 13 mPa·s
same,viscosity,"344 K, 101 kPa, x2 = 0.8",34 ± 10 mPa·s
same,viscosity,"352.8 K, 101 kPa, x2 = 0.75",19.5 ± 5.9 mPa·s
same,viscosity,"352.8 K, 101 kPa, x2 = 0.8",19.5 ± 5.9 mPa·s
same,viscosity,"352.8 K, 101 kPa, x2 = 0.8333",4.9 ± 1.5 mPa·s
same,electrical conductivity,"353 K, 101 kPa, x2 = 0.8333",1.16 ± 0.23 S/m
same,electrical conductivity,"353.2 K, 101 kPa, x2 = 0.75",1.04 ± 0.21 S/m
same,electrical conductivity,"353.2 K, 101 kPa, x2 = 0.8",1.15 ± 0.23 S/m
CCC[N+](CCC)(CCC)CCC.[Br-] + OCCOCCOCCO,viscosity,"293 K, 101 kPa, x2 = 0.75",117 ± 35 mPa·s
same,electrical conductivity,"293.2 K, 101 kPa, x2 = 0.75",0.078 ± 0.016 S/m
same,electrical conductivity,"293.2 K, 101 kPa, x2 = 0.8",0.066 ± 0.013 S/m
same,electrical conductivity,"293.3 K, 101 kPa, x2 = 0.7143",0.079 ± 0.016 S/m
same,viscosity,"294.8 K, 101 kPa, x2 = 0.7143",118 ± 35 mPa·s
same,viscosity,"296.2 K, 101 kPa, x2 = 0.8",81 ± 24 mPa·s
same,electrical conductivity,"303.1 K, 101 kPa, x2 = 0.7143",0.102 ± 0.02 S/m
same,electrical conductivity,"303.1 K, 101 kPa, x2 = 0.75",0.106 ± 0.021 S/m
same,electrical conductivity,"303.3 K, 101 kPa, x2 = 0.8",0.118 ± 0.024 S/m
same,viscosity,"303.4 K, 101 kPa, x2 = 0.8",62 ± 18 mPa·s
same,viscosity,"303.6 K, 101 kPa, x2 = 0.75",74 ± 22 mPa·s
same,viscosity,"304 K, 101 kPa, x2 = 0.7143",78 ± 24 mPa·s
same,electrical conductivity,"313.1 K, 101 kPa, x2 = 0.75",0.155 ± 0.031 S/m
same,electrical conductivity,"313.2 K, 101 kPa, x2 = 0.7143",0.181 ± 0.036 S/m
same,electrical conductivity,"313.2 K, 101 kPa, x2 = 0.8",0.145 ± 0.029 S/m
same,viscosity,"313.3 K, 101 kPa, x2 = 0.75",47 ± 14 mPa·s
same,viscosity,"313.9 K, 101 kPa, x2 = 0.7143",49 ± 15 mPa·s
same,viscosity,"314.1 K, 101 kPa, x2 = 0.8",38 ± 11 mPa·s
same,electrical conductivity,"323 K, 101 kPa, x2 = 0.75",0.214 ± 0.043 S/m
same,electrical conductivity,"323.2 K, 101 kPa, x2 = 0.8",0.206 ± 0.041 S/m
same,electrical conductivity,"323.3 K, 101 kPa, x2 = 0.7143",0.241 ± 0.048 S/m
same,viscosity,"323.3 K, 101 kPa, x2 = 0.75",31.4 ± 9.4 mPa·s
same,viscosity,"323.7 K, 101 kPa, x2 = 0.7143",33.1 ± 9.9 mPa·s
same,viscosity,"323.7 K, 101 kPa, x2 = 0.8",25.7 ± 7.7 mPa·s
same,electrical conductivity,"333.1 K, 101 kPa, x2 = 0.7143",0.296 ± 0.059 S/m
same,electrical conductivity,"333.2 K, 101 kPa, x2 = 0.75",0.273 ± 0.055 S/m
same,electrical conductivity,"333.2 K, 101 kPa, x2 = 0.8",0.257 ± 0.051 S/m
same,viscosity,"333.3 K, 101 kPa, x2 = 0.75",22.3 ± 6.7 mPa·s
same,viscosity,"333.7 K, 101 kPa, x2 = 0.7143",21.1 ± 6.3 mPa·s
same,viscosity,"334.1 K, 101 kPa, x2 = 0.8",17.7 ± 5.3 mPa·s
same,electrical conductivity,"343.1 K, 101 kPa, x2 = 0.7143",0.374 ± 0.075 S/m
same,electrical conductivity,"343.1 K, 101 kPa, x2 = 0.75",0.331 ± 0.066 S/m
same,electrical conductivity,"343.2 K, 101 kPa, x2 = 0.8",0.341 ± 0.068 S/m
same,viscosity,"343.8 K, 101 kPa, x2 = 0.7143",16 ± 4.8 mPa·s
same,viscosity,"343.8 K, 101 kPa, x2 = 0.75",15.4 ± 4.6 mPa·s
same,viscosity,"344 K, 101 kPa, x2 = 0.8",12 ± 3.6 mPa·s
same,electrical conductivity,"353 K, 101 kPa, x2 = 0.7143",0.423 ± 0.085 S/m
same,electrical conductivity,"353.1 K, 101 kPa, x2 = 0.75",0.405 ± 0.081 S/m
same,electrical conductivity,"353.4 K, 101 kPa, x2 = 0.8",0.375 ± 0.075 S/m
same,viscosity,"353.6 K, 101 kPa, x2 = 0.7143",13.1 ± 3.9 mPa·s
same,viscosity,"353.6 K, 101 kPa, x2 = 0.75",11.4 ± 3.4 mPa·s
same,viscosity,"353.8 K, 101 kPa, x2 = 0.8",9.7 ± 2.9 mPa·s
